From patent EP4843994A1, “NOVEL PEPTIDE HAVING MUSCLE FORMATION-PROMOTING ACTIVITY, ANTI-OBESITY ACTIVITY AND ANTI-DIABETIC ACTIVITY AND USES THEREOF” (dated 2026) come the findings set out here.

Assay [1] concerns 3T3-L1 cells. The experiment in a line: Expression of insulin resistance and sensitivity related genes in oleic acid-treated adipocytes (RT-PCR). To be noted: 3T3-L1 adipocytes; 350 µM oleic acid (insulin resistance environment); peptide 5 µM, 50 µM; 48 hours. As for the experimental part: 3T3-L1 cells (preadipocytes, American Type Culture Collection) were cultured in DMEM medium containing 2% BCS (Bovine Calf Serum) (Welgene, Korea). To differentiate 3T3-L1 cells into adipocytes, they were seeded into 12-well culture plates at a concentration of 1 x 10^5 cells/well, and when they became confluent (Day=2), the medium was changed once more and cultured for an additional 48 hours. After 48 hours (Day=0), the culture medium was replaced with DMEM medium containing 10% FBS, 1% P/S, 1 µg/ml insulin (Sigma, USA), 0.5 mM isobutylmethylxanthine (IBMX) (Sigma, USA) and 1 µM Dexamethasone (Sigma, USA) and cultured. After 2 days (Day=2), the medium was replaced with DMEM containing 10% FBS, 1% P/S, and 1 µg/ml insulin, and cultured. After 3 days (Day=5), the medium was replaced with one containing only 10% FBS and 1% P/S, and an insulin resistance environment was induced by adding 350 µM oleic acid (Sigma, St. Louis, MO, USA) for 24 hours. After 24 hours of induction, the medium was replaced with DMEM (10% FBS, 1% BSA) supplemented with 350 µM oleic acid (Sigma, St. Louis, MO, USA) and peptides (5 µM, 50 µM), and cultured for 48 hours. After culture, cells were harvested, and RNA was extracted using Trizol (Thermo Fisher Scientific, USA). The extracted RNA was synthesized to obtain DNA complementary to the RNA using TOPScript™ RT DryMIX (enzynomics, Korea), and then polymerase chain reaction (PCR) was performed on genes of markers related to insulin resistance or sensitivity using TOPsimple™ DryMIX-nTaq (enzynomics, Korea). Subsequently, the reaction products were run on a 1.5% agarose gel to compare the mRNA expression levels of the aforementioned markers for each sample. The primer sequences for the genes used in the PCR are listed in Table 6 below, and the GAPDH gene was used as a control.
Through the above experiment, it was aimed to determine whether insulin resistance is inhibited and insulin sensitivity is induced in 3T3-L1 adipocytes in which an insulin resistance environment was induced by oleic acid treatment by treating them with a peptide. The expression levels of relevant factors regarding the inhibition of insulin resistance or the induction of insulin sensitivity were confirmed via Western blot. As a result of the experiment, treatment with oleic acid in 3T3-L1 cells increased the expression level of p70S6K, which is an insulin resistance-related factor, and when the cells were treated with a peptide, the increased expression level of p70S6K decreased again. […]

For assay [2], the system named is HepG2 cells. Kind of assay: Expression of fatty acid oxidation-related genes in hepatocytes (RT-PCR). To be noted: 500 µM oleic acid, peptide 5 µM, 50 µM, 48 hours. As for the experimental part: HepG2 cells (human-derived hepatocytes) were cultured in DMEM medium containing 1% P/S and 10% FBS. When cell confluency reached approximately 70 to 80%, cells were seeded into a 12-well culture plate at a concentration of 2 x 10^5 cells/ml. Subsequently, when cell confluency in the 12-well culture plate reached approximately 70 to 80%, the medium was replaced with serum-free DMEM medium. After 4 hours, lipid accumulation was induced by replacing the solution with serum-free DMEM (1% BSA) supplemented with 500 µM oleic acid (Sigma, St. Louis, MO, USA). After inducing lipid accumulation for 24 hours, the solution was replaced with serum-free DMEM (1% BSA) supplemented with 500 µM oleic acid (Sigma, St. Louis, MO, USA) and peptides (5 µM, 50 µM), and cultured for 48 hours. After culture, cells were harvested and RNA was extracted using Trizol (Thermo Fisher Scientific, USA). The extracted RNA was synthesized to obtain DNA complementary to the RNA using TOPScript™ RT DryMIX (enzynomics, Korea), and then polymerase chain reaction (PCR) was performed on the genes of fatty acid oxidation-related markers using TOPsimple™ DryMIX-nTaq (enzynomics, Korea). Subsequently, the reaction products were run on a 1.5% agarose gel to compare the mRNA expression levels of the aforementioned markers for each sample. The primer sequences for the genes used in the PCR are listed in Table 5 below, and the GAPDH gene was used as a control.

Assay [3] concerns C2C12 cells. The experiment in a line: Microscopic analysis of morphology of differentiation-induced myoblasts (myotube formation). The settings on record: differentiation medium, three days. As for the experimental part: C2C12 cells (mouse-derived myoblasts) were cultured in DMEM medium containing 1% P/S and 2% BCS (bovine calf serum). When cell confluency reached approximately 80%, cells were seeded into 6-well culture plates at a concentration of 5 x 10^5 cells/2 ml. Subsequently, when cell confluency reached 100% in a 6-well culture plate, the differentiation medium (1% P/S, 2% horse serum) and peptides (5µM, 50µM) were replaced. After that, the differentiation medium (1% P/S, 2% horse serum) and peptides (5µM, 50µM) were replaced every two days, and images of the cells were taken using an optical microscope (FLEXACAM C1, Leica, Germany) three days after differentiation induction.
The above experiment aimed to determine whether cell differentiation is promoted when peptides are treated simultaneously with differentiation induction in C2C12 myoblasts. Cell morphology was examined using a microscope, and the thickness of the formed myotubes was measured.

The structures appear in SMILES notation.

In the case of `C[C@@H](O)[C@H](NC(=O)CNC(=O)[C@@H](N)Cc1c[nH]cn1)C(=O)N[C@@H](Cc1ccc(O)cc1)C(=O)O`, in assay [1], the “expression level of AMPKα (gene)” value was “increased again”, the “expression level of GLUT4 (gene)” value is recorded as “increased again”, the “expression level of SIRT1 (gene)” value is given as “increased again” and the “expression level of p70S6K (gene)” value is listed as “decreased again”. In assay [2], the “expression level of CPT1 (gene)” value is on record as “increased again”, the “expression level of PGC1α (gene)” value is “increased again” and the “expression level of PPARα (gene)” value is recorded as “increased again”. In addition, the “myoblast differentiation compared to the control group (differentiation induction, Non)” value in assay [3] (peptide 5 µM, 50 µM) is listed as “further promoted”. For the same compound, the myotube formation entry in assay [3] (peptide at high concentrations) is “a large number of long and thick myotubes were formed”.
